Measured values from patent US20250223431A1, “AQUEOUS DISPERSION OF BIOCIDE-FREE ORGANIC OPACIFYING PIGMENT PARTICLES” (Rohm and Haas Company, priority 2022, published 2025).

System: standard pool of bacteria, yeasts, and molds
Assay: Microbial resistance challenge test (three inoculations, streak plating on TSA and PDA agar)
Settings: summary in words of the challenge tests

CCC(C)(C)OO
effectiveness as preservative for the aqueous dispersion of opaque polymers: effective as preservatives
